The values below come from ChEMBL document CHEMBL1201862, “PubChem BioAssay data set” (2004).

Sequences of proteins named here, by UniProt entry; tags and fusion partners are left off. A change or cut given only in a name is not applied to a line headed by its entry.
UniProt P51151: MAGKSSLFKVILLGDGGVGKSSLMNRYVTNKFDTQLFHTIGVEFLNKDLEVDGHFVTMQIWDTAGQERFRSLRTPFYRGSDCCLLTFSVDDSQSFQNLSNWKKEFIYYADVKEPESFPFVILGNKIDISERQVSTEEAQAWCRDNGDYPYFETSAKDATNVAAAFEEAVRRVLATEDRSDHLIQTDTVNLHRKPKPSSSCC
UniProt P14618, whole entry, looked up: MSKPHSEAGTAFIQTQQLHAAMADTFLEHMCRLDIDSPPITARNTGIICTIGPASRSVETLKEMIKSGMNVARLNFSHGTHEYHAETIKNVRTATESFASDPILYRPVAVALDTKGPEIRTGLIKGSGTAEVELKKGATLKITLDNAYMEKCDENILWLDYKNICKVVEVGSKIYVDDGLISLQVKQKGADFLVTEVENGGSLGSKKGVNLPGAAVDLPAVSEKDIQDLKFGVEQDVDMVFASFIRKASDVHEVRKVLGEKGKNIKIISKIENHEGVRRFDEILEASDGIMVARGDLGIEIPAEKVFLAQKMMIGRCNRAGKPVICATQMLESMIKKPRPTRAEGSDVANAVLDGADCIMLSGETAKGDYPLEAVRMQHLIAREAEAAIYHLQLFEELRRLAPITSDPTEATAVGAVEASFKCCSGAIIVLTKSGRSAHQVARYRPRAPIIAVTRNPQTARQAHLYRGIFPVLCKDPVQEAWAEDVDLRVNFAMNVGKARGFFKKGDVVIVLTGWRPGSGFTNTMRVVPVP
UniProt Q9Y468: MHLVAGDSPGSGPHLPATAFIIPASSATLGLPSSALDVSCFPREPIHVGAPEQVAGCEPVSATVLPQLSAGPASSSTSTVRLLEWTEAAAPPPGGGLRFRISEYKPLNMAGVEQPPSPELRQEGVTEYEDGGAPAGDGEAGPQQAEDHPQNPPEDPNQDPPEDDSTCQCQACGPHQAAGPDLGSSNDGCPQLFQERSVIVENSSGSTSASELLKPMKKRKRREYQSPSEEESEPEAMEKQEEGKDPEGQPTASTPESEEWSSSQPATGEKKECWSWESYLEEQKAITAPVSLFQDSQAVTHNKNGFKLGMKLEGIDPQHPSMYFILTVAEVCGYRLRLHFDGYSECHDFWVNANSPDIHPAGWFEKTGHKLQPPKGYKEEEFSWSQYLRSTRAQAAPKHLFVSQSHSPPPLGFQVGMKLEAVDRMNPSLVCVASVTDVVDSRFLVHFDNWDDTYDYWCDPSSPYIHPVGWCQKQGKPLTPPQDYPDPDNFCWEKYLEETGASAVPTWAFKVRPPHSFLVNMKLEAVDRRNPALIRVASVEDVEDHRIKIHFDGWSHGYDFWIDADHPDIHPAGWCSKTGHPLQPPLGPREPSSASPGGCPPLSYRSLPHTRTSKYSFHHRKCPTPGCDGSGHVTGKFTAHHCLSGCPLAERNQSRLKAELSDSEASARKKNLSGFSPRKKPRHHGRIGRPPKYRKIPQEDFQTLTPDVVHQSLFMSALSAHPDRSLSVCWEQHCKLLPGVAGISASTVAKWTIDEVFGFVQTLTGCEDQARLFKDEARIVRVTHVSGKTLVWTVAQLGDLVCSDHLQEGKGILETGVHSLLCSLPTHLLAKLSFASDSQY
UniProt P84022, whole entry, looked up: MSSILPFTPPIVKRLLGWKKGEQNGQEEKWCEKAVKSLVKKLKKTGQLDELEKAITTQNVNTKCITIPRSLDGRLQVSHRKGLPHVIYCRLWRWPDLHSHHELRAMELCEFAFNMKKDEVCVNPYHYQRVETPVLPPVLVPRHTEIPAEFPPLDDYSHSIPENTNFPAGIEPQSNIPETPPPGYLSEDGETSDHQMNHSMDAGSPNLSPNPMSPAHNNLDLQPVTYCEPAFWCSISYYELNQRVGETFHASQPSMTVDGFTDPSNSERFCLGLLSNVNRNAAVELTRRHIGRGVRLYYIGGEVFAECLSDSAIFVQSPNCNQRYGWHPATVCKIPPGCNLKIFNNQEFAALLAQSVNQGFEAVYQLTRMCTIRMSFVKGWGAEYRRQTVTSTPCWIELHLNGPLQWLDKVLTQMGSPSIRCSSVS
UniProt Q99700, whole entry, looked up: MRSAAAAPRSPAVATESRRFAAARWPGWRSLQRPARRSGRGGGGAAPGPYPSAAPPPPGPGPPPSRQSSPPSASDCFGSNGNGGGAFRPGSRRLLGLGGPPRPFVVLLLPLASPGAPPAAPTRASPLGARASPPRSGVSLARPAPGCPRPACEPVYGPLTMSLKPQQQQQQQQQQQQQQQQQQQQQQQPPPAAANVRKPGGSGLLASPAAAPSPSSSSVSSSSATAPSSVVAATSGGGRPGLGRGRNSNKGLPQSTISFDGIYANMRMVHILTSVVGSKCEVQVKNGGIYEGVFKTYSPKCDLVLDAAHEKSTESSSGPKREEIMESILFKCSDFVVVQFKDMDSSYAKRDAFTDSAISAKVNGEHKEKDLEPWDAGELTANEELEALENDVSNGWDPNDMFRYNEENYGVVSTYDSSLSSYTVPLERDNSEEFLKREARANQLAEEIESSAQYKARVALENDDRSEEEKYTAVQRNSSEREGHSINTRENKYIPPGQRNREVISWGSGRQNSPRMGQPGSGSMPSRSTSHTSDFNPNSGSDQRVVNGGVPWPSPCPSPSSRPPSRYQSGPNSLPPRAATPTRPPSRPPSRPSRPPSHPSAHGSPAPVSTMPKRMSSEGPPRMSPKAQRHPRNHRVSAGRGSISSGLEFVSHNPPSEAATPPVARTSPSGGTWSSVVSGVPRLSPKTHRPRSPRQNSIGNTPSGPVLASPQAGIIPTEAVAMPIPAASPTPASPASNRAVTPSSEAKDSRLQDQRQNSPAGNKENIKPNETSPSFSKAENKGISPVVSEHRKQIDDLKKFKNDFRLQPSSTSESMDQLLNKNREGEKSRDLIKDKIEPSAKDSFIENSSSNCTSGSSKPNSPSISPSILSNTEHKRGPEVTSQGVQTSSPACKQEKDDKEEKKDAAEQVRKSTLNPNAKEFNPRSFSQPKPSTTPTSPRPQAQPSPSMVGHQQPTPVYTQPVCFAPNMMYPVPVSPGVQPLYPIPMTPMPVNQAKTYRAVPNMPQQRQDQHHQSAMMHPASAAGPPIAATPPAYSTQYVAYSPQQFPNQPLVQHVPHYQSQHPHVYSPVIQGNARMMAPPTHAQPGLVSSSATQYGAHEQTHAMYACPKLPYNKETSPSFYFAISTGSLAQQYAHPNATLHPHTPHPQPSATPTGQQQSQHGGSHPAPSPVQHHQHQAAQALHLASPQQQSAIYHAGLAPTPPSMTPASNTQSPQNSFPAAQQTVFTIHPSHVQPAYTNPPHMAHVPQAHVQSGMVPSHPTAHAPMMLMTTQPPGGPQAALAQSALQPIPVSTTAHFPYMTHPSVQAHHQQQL
UniProt P38398, whole entry, looked up: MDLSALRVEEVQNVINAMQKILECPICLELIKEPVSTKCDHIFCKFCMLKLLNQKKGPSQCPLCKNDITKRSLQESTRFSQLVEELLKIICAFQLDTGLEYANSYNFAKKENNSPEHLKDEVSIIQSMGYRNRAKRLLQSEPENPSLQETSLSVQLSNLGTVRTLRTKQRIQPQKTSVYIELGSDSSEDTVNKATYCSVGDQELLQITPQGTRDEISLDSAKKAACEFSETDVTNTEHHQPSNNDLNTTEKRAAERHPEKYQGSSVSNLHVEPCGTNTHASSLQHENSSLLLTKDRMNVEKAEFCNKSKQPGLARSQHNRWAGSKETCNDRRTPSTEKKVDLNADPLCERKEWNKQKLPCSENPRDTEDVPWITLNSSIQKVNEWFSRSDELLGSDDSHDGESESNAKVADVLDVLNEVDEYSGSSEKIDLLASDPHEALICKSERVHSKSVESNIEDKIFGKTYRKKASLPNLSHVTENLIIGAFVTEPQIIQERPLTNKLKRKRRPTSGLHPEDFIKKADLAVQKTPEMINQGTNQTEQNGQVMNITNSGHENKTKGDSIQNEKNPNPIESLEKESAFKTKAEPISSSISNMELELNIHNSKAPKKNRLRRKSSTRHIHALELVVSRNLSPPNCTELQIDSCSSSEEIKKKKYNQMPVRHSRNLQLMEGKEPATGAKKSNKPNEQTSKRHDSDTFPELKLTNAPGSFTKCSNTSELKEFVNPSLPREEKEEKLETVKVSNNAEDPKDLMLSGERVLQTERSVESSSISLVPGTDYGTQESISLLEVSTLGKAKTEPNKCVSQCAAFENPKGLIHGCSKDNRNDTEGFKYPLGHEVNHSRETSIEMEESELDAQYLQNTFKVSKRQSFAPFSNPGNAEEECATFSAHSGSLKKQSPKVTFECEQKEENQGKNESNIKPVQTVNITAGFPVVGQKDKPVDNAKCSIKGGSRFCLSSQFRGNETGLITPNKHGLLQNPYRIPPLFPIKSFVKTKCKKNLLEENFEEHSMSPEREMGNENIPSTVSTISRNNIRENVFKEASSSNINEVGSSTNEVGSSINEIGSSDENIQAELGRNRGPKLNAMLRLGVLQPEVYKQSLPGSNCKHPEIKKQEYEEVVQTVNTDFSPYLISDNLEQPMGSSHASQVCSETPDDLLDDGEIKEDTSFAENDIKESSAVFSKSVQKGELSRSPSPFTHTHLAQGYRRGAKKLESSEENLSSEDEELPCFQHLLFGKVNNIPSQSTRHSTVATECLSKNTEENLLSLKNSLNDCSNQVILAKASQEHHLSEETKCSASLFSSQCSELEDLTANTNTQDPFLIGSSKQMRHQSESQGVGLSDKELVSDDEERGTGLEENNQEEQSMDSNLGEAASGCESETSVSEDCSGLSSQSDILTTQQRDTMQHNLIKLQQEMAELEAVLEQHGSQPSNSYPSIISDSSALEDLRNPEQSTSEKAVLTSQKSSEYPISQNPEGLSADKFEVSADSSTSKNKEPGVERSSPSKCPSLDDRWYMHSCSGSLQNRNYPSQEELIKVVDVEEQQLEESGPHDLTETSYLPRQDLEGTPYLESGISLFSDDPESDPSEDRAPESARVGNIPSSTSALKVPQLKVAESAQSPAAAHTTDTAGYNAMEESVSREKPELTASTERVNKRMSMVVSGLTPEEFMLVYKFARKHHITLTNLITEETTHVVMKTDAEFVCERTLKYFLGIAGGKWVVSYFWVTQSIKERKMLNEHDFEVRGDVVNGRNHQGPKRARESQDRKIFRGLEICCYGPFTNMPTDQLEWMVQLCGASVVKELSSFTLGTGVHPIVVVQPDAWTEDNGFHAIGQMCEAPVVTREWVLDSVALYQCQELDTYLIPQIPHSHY
UniProt Q14974, whole entry, looked up: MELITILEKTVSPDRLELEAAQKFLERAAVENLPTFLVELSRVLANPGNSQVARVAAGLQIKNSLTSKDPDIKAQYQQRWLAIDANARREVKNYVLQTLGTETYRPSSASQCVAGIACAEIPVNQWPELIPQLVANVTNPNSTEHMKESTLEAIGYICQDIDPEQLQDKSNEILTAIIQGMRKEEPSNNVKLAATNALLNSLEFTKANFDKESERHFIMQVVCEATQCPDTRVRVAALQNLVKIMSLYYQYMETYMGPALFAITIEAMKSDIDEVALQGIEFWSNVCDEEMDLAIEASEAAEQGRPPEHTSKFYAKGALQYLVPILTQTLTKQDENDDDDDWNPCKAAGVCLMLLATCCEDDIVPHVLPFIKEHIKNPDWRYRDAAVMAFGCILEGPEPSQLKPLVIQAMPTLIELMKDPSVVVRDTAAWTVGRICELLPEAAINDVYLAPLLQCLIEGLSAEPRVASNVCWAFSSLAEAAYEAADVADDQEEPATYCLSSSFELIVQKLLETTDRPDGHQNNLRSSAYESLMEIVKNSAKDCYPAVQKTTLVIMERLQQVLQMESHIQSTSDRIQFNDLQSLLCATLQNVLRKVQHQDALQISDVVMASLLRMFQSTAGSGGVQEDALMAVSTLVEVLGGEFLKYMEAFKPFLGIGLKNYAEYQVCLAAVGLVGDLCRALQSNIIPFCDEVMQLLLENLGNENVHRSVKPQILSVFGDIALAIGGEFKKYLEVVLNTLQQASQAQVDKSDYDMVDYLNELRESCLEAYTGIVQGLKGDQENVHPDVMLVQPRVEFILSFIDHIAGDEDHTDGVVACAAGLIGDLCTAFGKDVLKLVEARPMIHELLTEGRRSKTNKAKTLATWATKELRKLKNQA
UniProt O95149, whole entry, looked up: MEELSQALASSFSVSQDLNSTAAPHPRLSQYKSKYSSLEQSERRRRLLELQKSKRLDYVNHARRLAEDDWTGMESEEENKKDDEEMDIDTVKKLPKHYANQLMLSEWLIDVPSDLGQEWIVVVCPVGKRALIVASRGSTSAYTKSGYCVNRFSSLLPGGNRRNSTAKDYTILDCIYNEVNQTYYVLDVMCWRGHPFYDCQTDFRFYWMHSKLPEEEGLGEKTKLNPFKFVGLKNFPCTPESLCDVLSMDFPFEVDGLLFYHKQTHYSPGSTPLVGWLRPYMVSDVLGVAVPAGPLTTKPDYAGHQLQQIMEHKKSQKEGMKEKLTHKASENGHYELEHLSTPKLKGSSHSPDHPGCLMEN

Holding throughout (format): functional
Experiment [1] has as its target T1, 4'-phosphopantetheinyl transferase ffp (Bacillus subtilis) (UniProt Q9F4F7).
T1 sequence (whole entry): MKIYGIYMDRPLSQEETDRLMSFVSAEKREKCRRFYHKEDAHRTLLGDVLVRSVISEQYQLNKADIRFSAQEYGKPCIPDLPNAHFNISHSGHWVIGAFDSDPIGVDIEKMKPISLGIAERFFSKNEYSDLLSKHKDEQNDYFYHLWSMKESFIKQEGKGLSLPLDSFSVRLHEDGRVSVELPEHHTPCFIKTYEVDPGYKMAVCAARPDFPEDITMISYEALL
Put plainly: qHTS Assay for Inhibitors of Bacillus subtilis Sfp phosphopantetheinyl transferase (PPTase).

The target in experiment [2] is Menin/Histone-lysine N-methyltransferase MLL (Homo sapiens) (UniProt O00255+Q03164). In words: qHTS Assay for Inhibitors Targeting the Menin-MLL Interaction in MLL Related Leukemias: Competition With Fluorescein Labeled MLL-derived Peptide. In general terms: qHTS replaces the single test concentration by a dilution series.
In experiment [3] the target is Ras-related protein Rab-9A (Homo sapiens) (UniProt P51151). Put plainly: qHTS Assay for Rab9 Promoter Activators.
The target in experiment [4] is Huntingtin (Homo sapiens) (UniProt P42858). In words: qHTS Multiplex Assay to Identify Dual Action Probes in a Cell Model of Huntington: Aggregate Formation (GFP). [Related pubchem assays: 1482, 1471 ].
Experiment [5] is described as follows: qHTS Assay for Compounds that Induce Erasure of Genomic Imprints.
In experiment [6] the target is Pyruvate kinase PKM (Homo sapiens) (UniProt P14618). In words: qHTS Assay for Inhibitors of Human Muscle isoform 2 Pyruvate Kinase. [Related pubchem assays: 1379 ].
In experiment [7] the target is T2, Nuclear receptor ROR-gamma (Mus musculus) (UniProt P51450).
T2 sequence (whole entry): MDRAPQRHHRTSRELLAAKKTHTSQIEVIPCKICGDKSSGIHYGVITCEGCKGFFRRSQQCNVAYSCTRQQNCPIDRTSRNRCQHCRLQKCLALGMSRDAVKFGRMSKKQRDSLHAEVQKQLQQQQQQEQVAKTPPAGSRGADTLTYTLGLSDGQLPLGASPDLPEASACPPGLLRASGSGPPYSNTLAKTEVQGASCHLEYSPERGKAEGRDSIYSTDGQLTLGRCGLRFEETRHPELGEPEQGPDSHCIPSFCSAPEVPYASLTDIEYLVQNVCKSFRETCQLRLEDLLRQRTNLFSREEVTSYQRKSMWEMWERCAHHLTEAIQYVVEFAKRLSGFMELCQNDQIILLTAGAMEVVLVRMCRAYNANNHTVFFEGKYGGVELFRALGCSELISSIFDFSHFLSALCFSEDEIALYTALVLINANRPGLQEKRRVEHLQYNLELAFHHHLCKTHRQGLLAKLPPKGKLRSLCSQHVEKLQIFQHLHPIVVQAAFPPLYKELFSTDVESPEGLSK
In words: qHTS for inhibitors of ROR gamma transcriptional activity.

In experiment [8] the target is Lethal(3)malignant brain tumor-like protein 1 (Homo sapiens) (UniProt Q9Y468). Put plainly: qHTS Assay for the Inhibitors of L3MBTL1. [Related pubchem assays: 485292 (Probe Development Summary for Inhibitors of L3MBTL1)].
In experiment [9] the target is T3, Histone-lysine N-methyltransferase EHMT2 (Homo sapiens) (UniProt Q96KQ7).
T3 sequence (whole entry): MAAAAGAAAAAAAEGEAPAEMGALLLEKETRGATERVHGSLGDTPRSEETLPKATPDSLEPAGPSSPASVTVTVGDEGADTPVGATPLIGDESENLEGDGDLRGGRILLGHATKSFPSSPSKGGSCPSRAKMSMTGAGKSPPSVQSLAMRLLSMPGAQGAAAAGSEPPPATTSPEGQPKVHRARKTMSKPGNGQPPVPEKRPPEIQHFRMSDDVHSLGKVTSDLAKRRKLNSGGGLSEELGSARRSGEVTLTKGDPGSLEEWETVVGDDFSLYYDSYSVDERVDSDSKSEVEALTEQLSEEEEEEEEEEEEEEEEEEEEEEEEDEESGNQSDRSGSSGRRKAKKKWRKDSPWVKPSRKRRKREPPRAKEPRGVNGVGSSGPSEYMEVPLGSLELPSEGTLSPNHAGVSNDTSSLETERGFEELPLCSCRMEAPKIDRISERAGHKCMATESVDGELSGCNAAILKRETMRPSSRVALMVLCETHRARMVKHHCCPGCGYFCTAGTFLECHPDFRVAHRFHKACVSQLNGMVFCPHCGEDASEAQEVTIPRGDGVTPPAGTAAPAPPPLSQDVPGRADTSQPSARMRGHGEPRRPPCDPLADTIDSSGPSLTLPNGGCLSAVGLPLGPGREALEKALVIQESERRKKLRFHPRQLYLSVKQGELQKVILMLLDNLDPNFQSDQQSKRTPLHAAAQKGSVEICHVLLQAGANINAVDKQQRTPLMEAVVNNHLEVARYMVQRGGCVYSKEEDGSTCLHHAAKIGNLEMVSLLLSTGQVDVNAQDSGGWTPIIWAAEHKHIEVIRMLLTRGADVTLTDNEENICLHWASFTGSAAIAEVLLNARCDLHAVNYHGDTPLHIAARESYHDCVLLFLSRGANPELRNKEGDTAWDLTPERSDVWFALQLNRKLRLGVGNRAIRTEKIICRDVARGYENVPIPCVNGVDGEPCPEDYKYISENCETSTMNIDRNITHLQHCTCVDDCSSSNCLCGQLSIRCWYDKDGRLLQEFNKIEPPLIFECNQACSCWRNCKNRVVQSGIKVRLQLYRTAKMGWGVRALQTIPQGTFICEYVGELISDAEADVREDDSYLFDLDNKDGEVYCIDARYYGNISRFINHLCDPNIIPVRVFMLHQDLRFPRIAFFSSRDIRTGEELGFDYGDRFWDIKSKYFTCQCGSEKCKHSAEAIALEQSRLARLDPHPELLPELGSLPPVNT
In words: qHTS Assay for Inhibitors of Histone Lysine Methyltransferase G9a. [Related pubchem assays (depositor defined):AID504404].

Experiment [10] deals with T4, Thioredoxin reductase 1, cytoplasmic (Rattus norvegicus) (UniProt O89049).
T4 sequence (whole entry): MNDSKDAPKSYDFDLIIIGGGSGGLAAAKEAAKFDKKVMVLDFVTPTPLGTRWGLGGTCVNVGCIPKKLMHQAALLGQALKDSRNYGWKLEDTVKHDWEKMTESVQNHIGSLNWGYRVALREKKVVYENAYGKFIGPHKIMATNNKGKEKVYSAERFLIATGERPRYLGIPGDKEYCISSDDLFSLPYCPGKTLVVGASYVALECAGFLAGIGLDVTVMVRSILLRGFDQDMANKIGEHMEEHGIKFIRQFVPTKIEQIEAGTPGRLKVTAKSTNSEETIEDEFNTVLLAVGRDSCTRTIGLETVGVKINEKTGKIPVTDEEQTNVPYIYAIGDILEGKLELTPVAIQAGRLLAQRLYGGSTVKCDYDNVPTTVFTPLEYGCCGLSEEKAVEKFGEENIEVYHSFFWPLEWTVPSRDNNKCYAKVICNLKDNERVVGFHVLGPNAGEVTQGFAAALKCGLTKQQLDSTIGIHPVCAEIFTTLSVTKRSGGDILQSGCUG
In words: qHTS Assay for Inhibitors of Mammalian Selenoprotein Thioredoxin Reductase 1 (TrxR1): qHTS. [Related pubchem assays (depositor defined):AID488771].

Experiment [11] addresses T5, DNA polymerase iota (Homo sapiens) (UniProt Q9UNA4).
T5 sequence (whole entry): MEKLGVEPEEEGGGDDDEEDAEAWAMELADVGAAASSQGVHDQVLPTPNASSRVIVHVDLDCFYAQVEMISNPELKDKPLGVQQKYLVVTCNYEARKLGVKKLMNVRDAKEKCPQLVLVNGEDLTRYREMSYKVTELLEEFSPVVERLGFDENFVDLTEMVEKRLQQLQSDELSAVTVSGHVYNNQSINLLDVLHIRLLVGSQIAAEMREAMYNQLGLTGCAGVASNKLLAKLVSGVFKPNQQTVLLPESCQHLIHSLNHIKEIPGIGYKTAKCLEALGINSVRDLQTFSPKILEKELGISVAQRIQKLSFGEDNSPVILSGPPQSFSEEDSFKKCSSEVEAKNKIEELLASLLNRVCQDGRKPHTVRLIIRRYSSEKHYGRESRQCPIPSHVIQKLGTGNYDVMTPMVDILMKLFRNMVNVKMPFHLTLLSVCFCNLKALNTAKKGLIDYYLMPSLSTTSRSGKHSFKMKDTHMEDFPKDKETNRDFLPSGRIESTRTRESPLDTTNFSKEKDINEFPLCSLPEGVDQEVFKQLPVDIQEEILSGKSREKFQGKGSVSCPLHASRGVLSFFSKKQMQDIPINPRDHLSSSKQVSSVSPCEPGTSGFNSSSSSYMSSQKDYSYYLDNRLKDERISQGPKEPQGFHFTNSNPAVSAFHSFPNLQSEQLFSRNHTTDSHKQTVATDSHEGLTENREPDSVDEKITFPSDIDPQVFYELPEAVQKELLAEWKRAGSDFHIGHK
In words: qHTS for Inhibitors of Polymerase Iota. [Related pubchem assays (depositor defined):AID588623].

In experiment [12] the test system is HepG2. In words: qHTS for Inhibitors of TGF-b: Cytotox Counterscreen. [Related pubchem assays (depositor defined):AID588855, AID588860]. To be noted: Homo sapiens.
Experiment [13] addresses Mothers against decapentaplegic homolog 3 (Homo sapiens) (UniProt P84022). Put plainly: qHTS for Inhibitors of TGF-b. [Related pubchem assays (depositor defined):AID588856, AID588860].
Experiment [14] has as its target Ataxin-2 (Homo sapiens) (UniProt Q99700). Put plainly: qHTS for Inhibitors of ATXN expression.
In experiment [15] the target is Breast cancer type 1 susceptibility protein (Homo sapiens) (UniProt P38398). In words: qHTS Assay to Identify Small Molecule Activators of BRCA1 Expression.
Experiment [16] has as its target Geminin (Homo sapiens) (UniProt O75496). In words: A quantitative high throughput screen for small molecules that induce DNA re-replication in MCF 10a normal breast cells.
The target of experiment [17] is Glycoprotein hormones alpha chain (Homo sapiens) (UniProt P01215). Put plainly: qHTS for Activators of Integrin-Mediated Alleviation for Muscular Dystrophy.
The nature of experiment [18]: qHTS for induction of synthetic lethality in tumor cells producing 2HG: qHTS for the HT-1080-IDH1KD cell line.
The target of experiment [19] is DNA polymerase eta (Homo sapiens) (UniProt Q9Y253). Put plainly: qHTS for Inhibitors of Polymerase Eta: Confirmatory Assay for Cherry-picked Compounds.
Experiment [20] concerns the target GTP-binding nuclear protein Ran/Importin subunit beta-1/Snurportin-1 (Homo sapiens) (UniProt P62826+Q14974+O95149). In words: qHTS Assay for Inhibitors of RanGTP induced Rango (Ran-regulated importin-beta cargo) - Importin beta complex dissociation. [Related pubchem assays (depositor defined):AID540262].

SMILES strings stand for the structures. This is a selection; strong and weak results do not stand in their true shares. Only a part of the results of these assays is listed, not drawn at random. The list shows a part of the results. The source made the active and inactive calls. Unless noted, the calls are words filed in the database; no cut-off is given here.

`CC(C)C(=O)NC(Sc1ccccc1)C(Cl)(Cl)Cl` (stereo unspecified): in experiment [1], the Potency result was “inactive”.
With `O=[N+]([O-])c1ccc(Nc2ccc(Oc3ccc([N+](=O)[O-])cc3[N+](=O)[O-])cc2)c([N+](=O)[O-])c1`, the Potency entry in experiment [2] was “inactive”.
For the compound `CCc1nc2c([nH]1)c1no[n+]([O-])c1c1no[n+]([O-])c21`, the Potency entry in [3], in [5], in experiment [6], in [12], in [15] and in experiment [17] was “inactive” in each case. For the same compound, the Potency was active: 11.2 µM in experiment [4]; active: 12.6 µM in experiment [7]; active: 56.2 µM in experiment [1]; active: 5.01 µM in experiment [8]; active: 56.2 µM in experiment [9]; active: 11.2 µM in experiment [10]. Also, the Potency in experiment [11] is active: 10 µM; in experiment [13], active: 15.8 µM; in experiment [14], active: 15.8 µM; in [16] it was active: 2.91 µM; in experiment [18] it was active: 20.6 µM; in experiment [19], active: 84.9 µM.
In the case of `O=[N+]([O-])c1ccc2nc3c([N+](=O)[O-])cc([N+](=O)[O-])cc3c(O)c2c1`, the Potency entry in [20] was “inactive”.
